Laboratory results taken from article PMC2941209 (Synapse (New York, N.Y.), 2010).

Sequences of proteins named here, by UniProt entry; tags and fusion partners are left off.
UniProt P31652, whole entry: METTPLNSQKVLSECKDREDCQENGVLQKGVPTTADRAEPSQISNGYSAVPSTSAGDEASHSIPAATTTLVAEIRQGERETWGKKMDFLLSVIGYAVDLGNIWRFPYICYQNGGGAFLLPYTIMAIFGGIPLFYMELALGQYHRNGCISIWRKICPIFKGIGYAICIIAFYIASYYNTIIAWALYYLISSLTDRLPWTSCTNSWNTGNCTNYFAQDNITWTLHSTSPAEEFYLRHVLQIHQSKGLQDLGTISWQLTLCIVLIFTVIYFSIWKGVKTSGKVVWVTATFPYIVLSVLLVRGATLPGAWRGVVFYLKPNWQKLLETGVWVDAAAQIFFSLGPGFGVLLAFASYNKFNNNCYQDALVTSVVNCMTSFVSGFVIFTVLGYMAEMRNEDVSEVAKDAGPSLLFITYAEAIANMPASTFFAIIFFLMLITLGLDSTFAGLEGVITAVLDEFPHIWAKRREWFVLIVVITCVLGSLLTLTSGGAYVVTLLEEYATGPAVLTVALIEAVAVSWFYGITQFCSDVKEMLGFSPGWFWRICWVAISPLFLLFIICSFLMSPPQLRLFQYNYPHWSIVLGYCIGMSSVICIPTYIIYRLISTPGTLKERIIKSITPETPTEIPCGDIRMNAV

Columns and labels:
SERT [1] = molecular target: T1, SERT (Rattus norvegicus, UniProt P31652); experiment: [3H]5-HT release assay
SERT [2] = molecular target: T1, SERT; experiment: [3H]5-HT uptake inhibition assay; format: biochemical
[3] = 1 μM test compound, substrate MDMA

Molecule	EMAX substrate-induced [3H]5-HT release, CONTROL (SERT [1]; substrate alone (control), 100% = release by 100 μM tyramine, ±SD) [%]	IC50 (SERT [2]) [nM]	effect on EMAX of MDMA-induced [3H]5-HT release (SERT [1]; [3])	rightward shift of the MDMA dose-response curve ([3H]5-HT release) (SERT [1]; [3])	Ke value lower than IC50 for inhibiting [3H]5-HT uptake (fold lower) (SERT [1]; substrate not given) [fold]
(+)-fenfluramine	100±6				
CC(N)Cc1c[nH]c2ccc(OCc3cccs3)cc12 (stereo not drawn) [α-methyl-5-(2-thienylmethoxy)-1H-indole-3-ethanamine]		1860	without altering the EMAX values	3–4 fold	4.6
